Measured values: publication doi:10.1101/434357v1 (biorxiv, 2018)

Biological target: T1, α2-WT GlyR (Homo sapiens, UniProt P23416)
T1 construct: gene GLRA2; full-length homomeric pentamer; pGEMHE in Xenopus laevis oocytes, pCIS2 in HEK293 cells
T1 sequence (P23416 28-452): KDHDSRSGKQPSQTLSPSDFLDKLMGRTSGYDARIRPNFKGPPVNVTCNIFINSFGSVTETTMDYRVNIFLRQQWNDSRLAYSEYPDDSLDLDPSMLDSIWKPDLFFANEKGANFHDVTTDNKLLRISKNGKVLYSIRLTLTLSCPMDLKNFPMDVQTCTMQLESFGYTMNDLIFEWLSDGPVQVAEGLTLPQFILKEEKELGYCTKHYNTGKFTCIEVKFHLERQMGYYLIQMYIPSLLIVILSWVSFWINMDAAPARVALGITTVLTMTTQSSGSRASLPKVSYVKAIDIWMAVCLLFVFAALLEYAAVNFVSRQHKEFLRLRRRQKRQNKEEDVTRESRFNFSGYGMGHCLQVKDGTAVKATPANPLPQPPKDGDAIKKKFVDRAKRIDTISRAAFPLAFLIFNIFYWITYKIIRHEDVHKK
Experiment: two-electrode voltage clamp, Xenopus oocytes, current dose-response
Assay type: cell-based

NCC(=O)O [Glycine]
EC50: 230 µM
